# From PubChem
# Hits are enriched below; roughly 1.2% of the tested compounds scored in any of these assays.
# UUG fidelity: yeast start codon fidelity modulation. S. cerevisiae UUG-firefly luciferase reporter, luminescence/redox ratio. activity score, % at 18.7 µM. 0.13% of 350,000 active;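 active = replicate mean at a twofold rise or more, about +100% in these data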;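 also: firefly luciferase made from a UUG start codon reports start codon fidelity; reporter light over untreated wells divided by growth signal over untreated wells; some hits fall short of that in this replicate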
# Cneo AK release: Cryptococcus neoformans cell lysis inducers, primary screen, AK release luminescence, single concentration | C. neoformans lysis, adenylate kinase release luminescence, 4 h; normalised: neutral wells 0, clomiphene wells 100 | lysis activity, % at 15 µM | actives 0.2% (n = 360,000) | AID 651654, 2012;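 active = mean lysis activity across replicates of at least 80%, whatever share of replicates individually reach that level; inactive = mean lysis activity below 80%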
#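 read-out = cell lysis signal | test system = log-phase Cryptococcus neoformans yeast cells | input = cells at 5 × 10^6 per mL | medium = fresh YPD growth medium | signal = luminescent adenylate kinase detection reagent | timing = 4 h at 37 °C static, read 1 h later | dosing = single dose | controls = Clomiphene as positive lysis control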
# C2C12 statin: suppressors of statin myotoxicity in C2C12 myotubes, primary screen, cell-based, single point, plate reader. C2C12 myotubes + simvastatin, ATP luminescence, 48 h; scaled: DMSO 0, geranylgeraniol control 100. rescue of ATP level, % at 7.49 µM. actives 0.78% (n = 330,000);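 active = mean ATP rescue above about 67%, or every replicate alone reaching that limit, limit read from the data, passing the limit was not always enough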;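 also: myotubes were challenged with 10 µM simvastatin during compound exposure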
# miR122 inh: miR-122 Renilla sensor signal increase in Huh7, primary screen, miR-122 inhibitor project, cell-based, single point, plate reader; actives 0.3% (n = 340,000); activation (reporter increase), % at 12.5 µM; Huh7 miR-122 Renilla luciferase sensor, 48 h; neutral wells = 0, positive control = 100;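 active = mean replicate activation score at least 90 and every replicate individually at or above 90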;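 also: higher luciferase means less miR-122 activity so hits act as miR-122 inhibitors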
# * marks the source's active call; other numbers are inactive results; . = not tested or not shown; [ ] = another dose, or the depositor's remark.
Structure,UUG fidelity,Cneo AK release,C2C12 statin,miR122 inh
C[C@@H]1CN([C@H](C)CO)C(=O)c2cccc(NS(=O)(=O)c3ccc(F)cc3)c2O[C@H]1CN(C)Cc1ccc(C(F)(F)F)cc1,-4.9,1.8,47.9,66.5[16.7 µM]
Cc1ccc(S(=O)(=O)Nc2cccc3c2O[C@@H](CN(C)Cc2ccc(C(F)(F)F)cc2)[C@H](C)CN([C@@H](C)CO)C3=O)cc1,19.4,-0.1,77.6*,53.8[16.7 µM]
Cc1ccc(S(=O)(=O)Nc2cccc3c2O[C@@H](CN(C)Cc2ccc(C(F)(F)F)cc2)[C@H](C)CN([C@H](C)CO)C3=O)cc1,22.3,-0.8,101.5*,75.3[16.7 µM]
Cc1noc(C)c1NC(=O)Nc1ccc2c(c1)CC(=O)N([C@H](C)CO)C[C@@H](C)[C@@H](CN(C)S(=O)(=O)c1cccs1)O2,10.1,0.3,-21.7,21.9[16.7 µM]
O=C(C(=O)N(Cc1ccccc1)Cc1ccccc1)c1c(-c2ccccc2)[nH]c2ccccc12,-10.6,0.2,-6.5,100.0*
COCCNC(=O)C(=O)c1c(-c2ccccc2)[nH]c2ccccc12,-2.6,0.4,-5.5,-3.2
Cc1ccc(-c2cnc3c(c2)C(=O)N([C@H](C)CO)C[C@H](C)[C@H](CN(C)C(=O)c2ccc(F)cc2)O3)cc1,-1.2,7.9,37.3,15.5[16.7 µM]
C[C@H]1CN([C@@H](C)CO)C(=O)c2cccc(NS(C)(=O)=O)c2O[C@@H]1CN(C)Cc1ccc2c(c1)OCO2,.,45.5,11.4,18.8[16.7 µM]
O=C1NC[C@H](Cc2ccccc2)N(CCc2cccc(F)c2)C1=O,-1.0,-0.8,-1.4,-5.5
CC(=Nc1ccccc1)C1=C(O)C(Cc2cccc(F)c2)NC1=O (centres undefined),-11.5,-3.6,-50.5,158.1*
O=C(CN1CCN(S(=O)(=O)c2ccc(Cl)cc2)CC1)Nc1ccc2c(c1)OCCO2,-6.9,-2.8,9.4,0.3
O=C(CN1CCN(S(=O)(=O)c2ccc(Br)cc2)CC1)Nc1ccc2c(c1)OCCO2,-6.9,1.1,144.0*,0.8
CC(C)(C)C(=O)C1=C(O)C(=O)N(Cc2ccccc2)C1c1ccccc1F (centres undefined),-29.0,-0.8,-8.2,238.7*
COc1cccc(CC(NC(C)=O)C(=O)NC2CCN(c3nc(C)cc(C)c3C#N)CC2)c1 (centres undefined),3.7,-1.4,117.8*,-1.9
O=c1c2c([nH]c3ccc(Br)cc13)CCCC2,-7.0,-0.2,126.3*,3.8
Cc1cccc(C(=O)N2CCC(n3nnc4cc(F)ccc43)CC2)c1,-15.3,-0.1,133.5*,5.4
O=C(CCN1CCCCC1)NCC[C@@H]1CC[C@H](NC(=O)Cc2cccnc2)[C@H](CO)O1,.,.,-14.2,-12.9[16.7 µM]
O=C(Cc1cccs1)Nc1nnc(Cc2ccccc2)s1,-2.4,-1.8,121.2*,-3.4
O=C(Cc1cccs1)Nc1nnc(CCc2ccccc2)s1,-13.2,-1.9,-3.9,-0.1
Cn1nc(C(=O)Nc2ccc(S(=O)(=O)N3CCCCC3)cc2)ccc1=O,-7.2,-2.5,96.3*,3.4
C[C@@H]1CN([C@@H](C)CO)C(=O)Cc2cc(NS(=O)(=O)c3ccc(Cl)cc3)ccc2O[C@@H]1CN(C)CC1CCCCC1,0.1,-2.1,10.8,-4.7[16.7 µM]
O=C(C[C@@H]1CC[C@H]2[C@@H](COC[C@@H](O)CN2Cc2ccc3c(c2)OCO3)O1)N1CCOCC1,-11.9,-5.7,-11.2,1.9[16.7 µM]
Cc1ccc(S(=O)(=O)N2CCN(S(C)(=O)=O)C2c2ccccc2)cc1 (centres undefined),-10.5,-2.1,-8.8,6.7
Cc1ccc(S(=O)(=O)N2CCN(S(=O)(=O)c3ccc(C)cc3)C2c2ccccc2)cc1,-16.5,-1.7,138.5*,7.7
CCOc1ncnc2c1[nH]c1ccccc12,-18.9,-2.8,130.9*,-7.4
COc1ccc(CNc2ncnc3c2[nH]c2ccccc23)cc1,-10.0,-1.1,.,1.5
C[C@H]1CN([C@@H](C)CO)C(=O)c2cc(NC(=O)CCCN(C)C)ccc2O[C@H]1CN(C)C(=O)Nc1cccc2ccccc12,0.3,-0.8,-1.8,-4.0[16.7 µM]
Cc1cc(C(F)(F)F)c2sc(N)nc2n1,-24.8,-1.6,84.8*,-3.1
Cc1cc2c(cc1C)/C(=C\C(N)=O)NC(C)(C)C2,-0.2,1.7,142.4*,3.3
Cc1cccc2c1CC(C)(C)N/C2=C\C(N)=O,-3.2,0.5,-9.7,1.2
C[C@@H]1CN([C@H](C)CO)C(=O)c2cc(N(C)C)ccc2O[C@H]1CN(C)C(=O)Nc1ccc2c(c1)OCO2,3.8,-5.9,0.8,1.0[16.7 µM]
CO[C@H]1CN(C)C(=O)c2cc(NS(=O)(=O)c3cn(C)cn3)ccc2OC[C@@H](C)N(CC2CC2)C[C@H]1C,.,-0.6,1.1,.
CC(=O)Nc1ccc2nc(NC(=O)c3ccc([N+](=O)[O-])o3)sc2c1,-13.8,0.1,114.0*,.
CC(=O)Nc1ccc2nc(NC(=O)c3ccco3)sc2c1,-12.3,-3.7,-10.7,17.3
Cc1ccc(S(=O)(=O)N(C)C[C@@H]2OCCCC[C@H](C)Oc3ccc(NC(=O)CCC(F)(F)F)cc3C(=O)N([C@@H](C)CO)C[C@@H]2C)cc1,23.6,17.2,.,1.3[16.7 µM]
C[C@H](CO)N1C[C@H](C)[C@@H](CN(C)Cc2ccc(C(F)(F)F)cc2)Oc2ccc(NC(=O)Cc3cn(C)c4ccccc34)cc2CC1=O,0.2,3.2,114.8*,-3.2[16.7 µM]
C[C@@H]1CN([C@H](C)CO)C(=O)Cc2cc(NC(=O)Cc3cn(C)c4ccccc34)ccc2O[C@@H]1CN(C)Cc1ccc(Oc2ccccc2)cc1,-2.6,4.3,46.3,-10.6[16.7 µM]
C[C@H](CO)N1C[C@H](C)[C@@H](CN(C)Cc2ccc(C(F)(F)F)cc2)Oc2ccc(NC(=O)Cc3ccccc3)cc2CC1=O,.,10.7,115.6*,3.4[16.7 µM]
C[C@@H]1CN([C@@H](C)CO)C(=O)Cc2cc(NC(=O)Cc3cn(C)c4ccccc34)ccc2O[C@H]1CN(C)Cc1ccc(Oc2ccccc2)cc1,20.8,0.2,76.2*,-7.5[16.7 µM]
COc1ccc(CN(C)C[C@@H]2Oc3ccc(NC(=O)Cc4cn(C)c5ccccc45)cc3CC(=O)N([C@H](C)CO)C[C@H]2C)cc1,-0.4,-0.8,80.8*,-4.7[16.7 µM]
C[C@@H]1CN([C@@H](C)CO)C(=O)Cc2cc(NC(=O)Cc3ccccc3)ccc2O[C@H]1CN(C)Cc1ccc(C(F)(F)F)cc1,.,12.1,27.2,-11.2[16.7 µM]
CNC[C@@H]1Oc2ccc(NS(=O)(=O)c3ccc(C)cc3)cc2CC(=O)N([C@@H](C)CO)C[C@@H]1C,-13.0,15.7,-1.6,-1.1[16.7 µM]
C[C@H]1CCCCO[C@@H](CN(C)C(=O)Nc2ccc(C(F)(F)F)cc2)[C@@H](C)CN([C@@H](C)CO)C(=O)c2cc(NC(=O)CCC(F)(F)F)ccc2O1,-13.7,0.1,.,22.2[16.7 µM]
Cc1ccnc2nc(C(=O)OCC(=O)c3ccccc3)nn12,-7.1,-0.6,111.6*,-1.4

# Some of the entries so far, as labelled records:
CNC[C@@H]1Oc2ccc(NS(=O)(=O)c3ccc(C)cc3)cc2CC(=O)N([C@@H](C)CO)C[C@@H]1C
  UUG fidelity = -13.0	Cneo AK release = 15.7	C2C12 statin = -1.6	miR122 inh = -1.1[16.7 µM]
C[C@H]1CCCCO[C@@H](CN(C)C(=O)Nc2ccc(C(F)(F)F)cc2)[C@@H](C)CN([C@@H](C)CO)C(=O)c2cc(NC(=O)CCC(F)(F)F)ccc2O1
  UUG fidelity = -13.7	Cneo AK release = 0.1	C2C12 statin = .	miR122 inh = 22.2[16.7 µM]
Cc1ccnc2nc(C(=O)OCC(=O)c3ccccc3)nn12
  UUG fidelity = -7.1	Cneo AK release = -0.6	C2C12 statin = 111.6*	miR122 inh = -1.4
